Experimental data: patent publication US20040097454A1, “Method for modulation of cell phenotype” (University Technology Corporation, priority 1999, published 2004)

Tests used:
[1] = system: PEPCK gene promoter in NIH 3T3-L1 clonal cell lines; assay: Truncated CRE-containing PEPCK promoter luciferase reporter (-109 pPC-Luc) in 3T3-L1 clones; type: cell-based; settings: KCREB clones 2-1 and 2-10
Description: To test the ability of KCREB and VP16-CREB expression to influence gene transcription, a plasmid containing a truncated, CRE-containing portion of the phosphoenolpyruvate carboxykinase (PEPCK) gene promoter linked to a luciferase reporter gene (−109 pPC-Luc) was transfected into each of the clones. […] Four hours later cell lysates were prepared and luciferase activity measured as an index of transcriptional activity. Levels are shown relative to levels of luciferase activity in untreated, control cells (No Add'n).

[2] = system: CREluc reporter in HEK cells; assay: CREluc reporter in HEK cells transfected with CREB constructs; type: cell-based; settings: transient transfection of adenoviral expression plasmids
Source text: CDNA for KCREB, CREB DIEDML and VP16CREB were cloned into adenoviral expression vectors as described previously herein. The plasmids were transiently transfected into HEK cells to assess their impact upon a cotransfected CREluc reporter construct. […] Transfected cells were also lysed and CREB protein content and Flag content assayed Western analysis. All proteins were highly expressed in HEK cells (data not shown).

[3] = system: visceral adipose tissue cells in obese mice; assay: Intraperitoneal adenovirus-KCREB in obese mice (planned); type: in vivo; settings: adenovirus vector intraperitoneal
Source text: The ability of KCREB to decrease triacylglycerol storage in visceral adipose tissue cells in obese mice will be evaluated via intraperitoneal injection of an adenovirus-KCREB vector. For these experiments, two models of obesity have been selected: (1) a diet-induced model using AKR/J mice; and (2) a genetic model using obese, leptin-deficient C57/B16J ob-/ob- mice. […] Ob-/ob- mice were selected as the genetic model, as it is well characterized and widely employed as a conventional genetic model of obesity. Two models will be used to account for any model specific factors, and provide complimentary data from two systems.
The KCREB is delivered to the abdominal adipose depots using an adenovirus vector injected into the peritoneal cavity adjacent to this tissue. In future studies, the role of CREB in adipose tissue function will be assessed through a variety of methods including transgenic mice. […]
Following injection of the adenovirus vectors, various biochemical, morphological, and behavior parameters are measured to evaluate the effectors of KCREB. […] Although changes in visceral fat tissue are the focus of these studies, the other fat depots are evaluated since changes in one fat depot may produce changes in other sites. […] Whole body lipid content is measured by digestion of the animals in ethanol-KOH. […]

[4] = system: PEPCK, FABP and FAS gene promoters in 3T3-L1 fibroblasts; assay: Full length PEPCK, FABP and FAS promoter luciferase reporters in 3T3-L1 fibroblasts; type: cell-based
Description: Control, VP16-CREB or KCREB inducibly expressing 3T3-L1 fibroblasts were transfected with plasmids containing the full length promoters of the PEPCK, FABP or FAS genes linked to luciferase. The cells were cotransfected with the internal control plasmid, pRSV-pGal. […] Cell lysates were then prepared, and luciferase activity measured as an index of transcriptional activity. Levels of transcription are shown relative to levels measured in untreated cells for each promoter tested, and were corrected for transfection efficiency.

3T3-L1 cells = assay: 3T3-L1 cell proliferation (Cell-Titer 96 Aq); type: cell-based; settings: muristerone-treated versus control clones, 72 hours
Description: 3T3-L1 fibroblasts were passaged and treated with differentiation-inducing agents as previously described (Klemm et al., 1998, J. Biol. Chem., 273:917-923), incorporated herein by reference in its entirety. Plates of 3T3-L1 fibroblasts and adipocytes were grown to 70-80% confluency and transfected with the above-described plasmids with Superfect Reagent (Oiagen, Valencia, Calif.) according to the manufacturer's recommendations. Cells stably transfected with the plasmid, pVgRXR were selected for in conventional medium containing 500 ug/mi Zeocin, and cells stably transfected with pIND-VP16-CREB, pIND-KCREB or pIND-LacZ plasmids were selected for in medium containing 500 ug/ml Geneticin. Large, rapidly growing, well separated colonies were isolated 10 to 12 days after selection was begun with either antibiotic. […] The effect of VP16-CREB and KCREB expression on 3T3-L1 proliferation was assessed by measuring cell number with the Cell-Titer 96 Aq reagent system (Promega Corp., Madison, Wis.).
Two possible mechanisms by which CREB could potentiate adipose differentiation would be by increasing cell proliferation related to clonal expansion, or by inhibiting cell growth as a prelude to terminal differentiation. To examine these possibilities, changes in the rate of cell growth in control versus muristerone-treated VP16-CREB and KCREB expressing clones was measured.

[5] = system: NIH 3T3-L1 preadipocyte cell lines; assay: Adipocyte differentiation assay, Oil Red O staining of triacylglycerol; type: cell-based
Description: Differentiation assays were performed on cells growing on 8 chamber microscope slides. […] The cells were treated with a differentiation mixture, muristerone, or both. […] Muristerone was added to medium at a final concentration of 10 uM for the entire 10 day differentiation period. After 10 days in culture, the cells were stained with Oil Red 0 to visualize triacylglycerol vesicles as previously described (Klemm et al., 1998, J. Biol. Chem., 273:917-923), and counterstained with hematoxylin to visualize cell morphology. Cells were observed by brightfield microscopy and representative fields, were photographed.

mature 3T3-L1 adipocytes = assay: Triacylglycerol stores in mature 3T3-L1 adipocytes after KCREB expression; type: cell-based; settings: in continued presence of insulin
Source text: Thus, CREB not only initiates adipogenesis, but appears to play a key role in maintaining the mature adipocyte phenotype.

[6] = system: PPARγ2 and FABP expression in 3T3-L1 cell lines; assay: Expression of adipocyte-specific markers PPARγ2 (Western) and FABP (RNA blot); type: cell-based; settings: KCREB expressed before and during the conventional differentiation-inducing mixture
Description: In this experiment, control, VP16-CREB and KCREB expressing cells lines were grown and treated as above. On days 0 and 10 of the experiment, whole cell lysates and total RNA were prepared from duplicate wells of cells. Approximately 25 ug of protein in the cell lysates (lysed directly on multiwell slides in SDS gel loading buffer) was separated on 10% polyacrylamide-SDS gels and transferred to nitrocellulose blots. The blots were probed with a polyclonal antibody to PPARγ2, and the specific PPARγ2 band is indicated by an * in the top row of blots (FIG. 3).
Similarly, 10 ug of total RNA was separated on 1% denaturing (formaldehyde) agarose gels run at 5 V/cm until the Bromophenol Blue tracking dye had migrated half the length of the gel. The gels were soaked in several changes of distilled water, overnight at 4° C., and stained with ethidium bromide and briefly examined in ultraviolet light to insure RNA integrity and equivalent RNA amounts in each lane. The gels were destained in several changes of 5× sodium chloride/sodium citrate (SSC) buffer. RNA was transferred onto nitrocellulose membranes. The resulting blots were heated to 80° C. under vacuum for two hours. The membranes were blocked for 30 minutes at 70° C., and then a biotin-labeled FABP-specific oligonucleotide probe (250 fg/ml) was added for an additional 30 min. […]

B1: KCREB: dominant negative CREB mutant with arginine to leucine substitution in the DNA binding domain, SEQ ID NO:8 (protein, listed as Homo sapiens)
chain: MTMESGAENQQSGDAAVTEAENQEMTVQAQPQIATLAQVSMPAAHATSSAPTVTLVQLPNGQTVQVHGVIQAAQPSVIQSPQVQTVQISTIAESEDSQESVDSVTDSQKRREILSRRPSYRKILNDLSSDAPGVPRIEEEKSEEETSAPAITTVTVPTPIYQTSSGQYIAITQGGAIQLANNGTDGVQGLQTLTMTNAAATQPGTTILQYAQTTDGQQILVPSNQVVVQAASGDVQTYQIRTAPTSTIAPGVVMASSPALPTQPAEEAARKREVRLMKNREAARECRRKKKEYVKCLENRVAVLENQNKTLIEELKALKDLYCHKSDZ
Question: Which results are given for B1?
Answer: basal transcription from truncated PEPCK promoter ([1]; overnight 10 uM muristerone alone): no effect on basal transcription levels; Bt2cAMP-stimulated transcription from truncated PEPCK promoter ([1]; overnight muristerone then 0.5 mM Bt2cAMP): efficiently inhibited Bt2cAMP-stimulated transcription; CREluc reporter luciferase expression [2]: decreases luciferase expression; adipose triacylglycerol stores [3]: will decrease adipose triacylglycerol stores in obese mice; basal transcription from full-length PEPCK, FABP and FAS promoters ([4]; muristerone-induced KCREB): decreased basal transcription levels slightly; stimulation of transcription by the differentiation-inducing mixture, PEPCK, FABP and FAS promoters ([4]; muristerone-induced KCREB plus mixture, 4 hours): completely blocked the stimulation of transcription; rate of cell proliferation (3T3-L1 cells): No significant differences in the rate of cell proliferation; cells exhibiting lipid accumulation ([5]; KCREB induced for the entire 9 or 10 day differentiation period): no cells exhibited lipid accumulation; cells exhibiting low levels of triacylglycerol storage and rounded morphology ([5]; KCREB induced with muristerone for only the first 48 hours, differentiation mixture): 5 to 10%; signs of adipocyte differentiation (Oil Red O) ([5]; muristerone prior to and during exposure to the differentiation-inducing mixture): failed to exhibit signs of differentiation; triacylglycerol stores / vesicles in mature adipocytes (mature 3T3-L1 adipocytes): complete loss of triacylglycerol stores within three to six days; also recorded: completely lost their triacylglycerol vesicles within three to six days; also recorded: dedifferentiation with loss of triacylglycerol vesicles; appearance of PPARγ2 and FABP, day 10 [6]: completely blocked the appearance of both PPARγ2 and FABP

“Also recorded” adds a separate entry of the source.
